Assay results: patent publication US6747057B2 (priority 2001, dated 2004)

Each compound was assayed on GSK-3 (assay: Inhibition of GSK-3 (32P incorporation into GS 1 peptide)). Details: read-out: IC50 GSK-3 inhibition; 37° C., 20 minutes, GS 1 peptide 15 μM, ATP 15 μM.
Type: biochemical

**Q.** How did the IC50 turn out when “2-Chloro-1-(5-cbloro-thioiphen-2-yl)-ethanone” was run?
**A.** 10 µM

**Q.** For `O=C(c1ccc(Br)cc1)C(Br)Br`, which IC50 is on record?
**A.** 0.75 µM

**Q.** How did the IC50 turn out when `O=C(c1ccc(Cl)cc1)C(Cl)Br` (stereo not shown) was run?
**A.** 7.5 µM

**Q.** How did the IC50 turn out when `O=C(c1ccccc1)C(Br)Br` was run?
**A.** 2.5 µM
